Measurements published in PubChem BioAssay AID485281 (National Center for Advancing Translational Sciences (NCATS), 2010).
The entries are a selection whose mix differs from that of the whole data set. Results filed as inconclusive are left out. Some salts and complexes are drawn in separate pieces, as the source files them; their charges need not balance. The source made the active and inactive calls. Calls come from the whole dose curve; as a rule, active = well fitted inhibition curve with a large enough effect; inconclusive = small, poorly fitted or top-dose-only effect; inactive = no such curve, though single readings can be large or run the other way.

The chains behind the UniProt entries cited, without tags or fusion partners. Residues count along the entry.
UniProt P02791, 2-175 limits assumed: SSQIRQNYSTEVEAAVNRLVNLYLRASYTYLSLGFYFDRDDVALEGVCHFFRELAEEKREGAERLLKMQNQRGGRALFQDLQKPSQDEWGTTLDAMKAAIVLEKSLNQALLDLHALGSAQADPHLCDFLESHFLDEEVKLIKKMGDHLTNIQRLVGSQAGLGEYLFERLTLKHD

The compounds below were run against Ferritin light chain (Equus caballus) (UniProt P02791) (assay: qHTS Assay for Identification of Novel General Anesthetics). Conditions: apoferritin/1-aminoanthracene competitive binding, fluorescence; at 77.5 µM (top of the series).
% is set by controls: 0 for no effect and ±100 for the full control effect.
Note: nearly all actives have a fitted effect of over 20% in size.

Compound	activity change, negative = displacement
N#Cc1ccc(C(=O)NCC2(N3CCCCC3)CCCCC2)cc1	inactive: -1.65%
O=C(NCC1(N2CCOCC2)CCCCC1)c1ccccc1[N+](=O)[O-]	inactive: 11.6%
CCOC(=O)C(CC)C1=NC(C)(C)Cc2ccccc21.O=[N+]([O-])c1cc([N+](=O)[O-])c(O)c([N+](=O)[O-])c1 (centres undefined)	inactive: -14.6%
CCCOc1cccc(C(=O)NCC2(N3CCOCC3)CCCCC2)c1	inactive: -3.4%
O=C(NCC1(N2CCCCC2)CCCCC1)c1cccc(C(F)(F)F)c1	inactive: 0.458%
O=[N+]([O-])c1cc([N+](=O)[O-])c(NCC2CCS(=O)(=O)C2)c([N+](=O)[O-])c1 (centres undefined)	inactive: -20.8%
CN1CCN(CCOC(=O)C(O)(c2ccccc2)c2ccccc2)CC1	inactive: -7.96%
COc1ccc(NC2CCN(C(=O)OC(C)(C)C)CC2)cc1	inactive: -16.1%
COc1cc(C(=O)NCC2(N3CCCCC3)CCCCC2)ccc1OC(F)F	inactive: -13.6%
O=C(NCC1(N2CCOCC2)CCCCC1)c1cc(=O)[nH]c2ccccc12	inactive: -2.35%
O=C(NCC1(N2CCCCC2)CCCCC1)c1ccc(OC(F)F)cc1	inactive: -0.0272%
O=C(NCC1(N2CCCCC2)CCCCC1)c1cccc([N+](=O)[O-])c1	inactive: -6.44%
CCOc1ccc(C(=O)NCC2(N3CCOCC3)CCCCC2)cc1	inactive: 6.34%
CCN1CCC(Nc2ccc(Cl)cc2)CC1	inactive: -3.42%
N#CC1(Nc2ccccc2)CCN(CCc2ccccc2)CC1	inactive: -9.43%
COc1ccc2c(c1O)-c1c(O)c(OC)cc3c1[C@H](C2)[N+](C)(C)CC3.O=[N+]([O-])c1cc([N+](=O)[O-])c([O-])c([N+](=O)[O-])c1[O-]	inactive: 1.76%
O=C(OC1CN2CCC1CC2)c1ccc([N+](=O)[O-])cc1 (centres undefined)	inactive: 20%
CCCCOc1ccccc1C(=O)NCC1(N2CCOCC2)CCCCC1	inactive: -7.73%
O=C(NCC1(N2CCOCC2)CCCCC1)c1ccccc1Br	inactive: 13.3%
CCCOc1ccc(C(=O)NCC2(N(C)C)CCCCC2)cc1OC	inactive: -5.59%
COc1ccc(CN(CCCl)CCCl)cc1Cl	inactive: -3.63%
O=[N+]([O-])c1cc([N+](=O)[O-])c(OC2CCCCC2O)c([N+](=O)[O-])c1 (centres undefined)	inactive: -12%

Compound	activity change, negative = displacement
CN(C)c1cccc(C(=O)NCC2(N3CCCCC3)CCCCC2)c1	inactive: 0.701%
CC(C)c1ccc(NC2CCN(C(=O)OC(C)(C)C)CC2)cc1	inactive: -11.3%
COc1cc(OC)c(C(=O)NCC2(N(C)C)CCCCC2)cc1OC	inactive: 8.76%
O=C(NCC1(N2CCOCC2)CCCCC1)c1cc2ccccc2o1	inactive: -9.86%
Cc1cc(C)cc(N(C(=O)c2ccccc2)C2CCN(C(=O)OC(C)(C)C)CC2)c1	inactive: -7.07%
CCOC(=O)N1CCC(Nc2ccc(OC)cc2)CC1	inactive: -0.94%
N#CC1(Nc2ccccc2)CCN(Cc2ccccc2)CC1	inactive: -10.3%
O=C(OC1CN2CCC1CC2)C1c2ccccc2Oc2ccccc21 (centres undefined)	inactive: -11.4%
O=C(NCC1(N2CCCCC2)CCCCC1)c1ccc(=O)[nH]c1	inactive: -6.92%
COc1ccc(C(=O)NCC2(N3CCCCC3)CCCCC2)cc1	inactive: 3.21%
CC(C)(C)OC(=O)N1CCC(N(C(=O)c2ccccc2)c2ccc(F)cc2)CC1	inactive: -1.69%
COc1ccc(C(=O)NCC2(N3CCCCC3)CCCCC2)c(OC)c1OC	inactive: -5.46%
CSc1ccccc1C(=O)NCC1(N2CCCCC2)CCCCC1	inactive: 1.52%
CCOC(=O)N1CCC(Nc2cccc(C)c2)CC1	inactive: -7.39%
COc1cc(C(=O)NCC2(N(C)C)CCCCC2)ccc1OC(F)F	inactive: -3.63%
Cc1ccc(OCC(C)C)c(CN(CCCl)CCCl)c1	inactive: -2.84%
CCOc1ccc(C)cc1CN(CCCl)CCCl	inactive: -6.46%
O=C(NCC1(N2CCOCC2)CCCCC1)c1ccc(Cl)cc1	inactive: 5.37%
O=C(NCC1(N2CCCCC2)CCCCC1)c1ccc(F)cc1	inactive: -1.22%
COc1ccc(NC2CCN(CCc3ccccc3)CC2)c(OC)c1	inactive: -11.4%
CCOC(=O)N1CCC(Nc2ccc(F)cc2)CC1	inactive: -4.51%
COc1ccccc1C(=O)NCC1(N2CCOCC2)CCCCC1	inactive: 4.81%
